Protein sequences, listed by entry. Tags and fused reporters are not part of them.
UniProt P27338, whole entry: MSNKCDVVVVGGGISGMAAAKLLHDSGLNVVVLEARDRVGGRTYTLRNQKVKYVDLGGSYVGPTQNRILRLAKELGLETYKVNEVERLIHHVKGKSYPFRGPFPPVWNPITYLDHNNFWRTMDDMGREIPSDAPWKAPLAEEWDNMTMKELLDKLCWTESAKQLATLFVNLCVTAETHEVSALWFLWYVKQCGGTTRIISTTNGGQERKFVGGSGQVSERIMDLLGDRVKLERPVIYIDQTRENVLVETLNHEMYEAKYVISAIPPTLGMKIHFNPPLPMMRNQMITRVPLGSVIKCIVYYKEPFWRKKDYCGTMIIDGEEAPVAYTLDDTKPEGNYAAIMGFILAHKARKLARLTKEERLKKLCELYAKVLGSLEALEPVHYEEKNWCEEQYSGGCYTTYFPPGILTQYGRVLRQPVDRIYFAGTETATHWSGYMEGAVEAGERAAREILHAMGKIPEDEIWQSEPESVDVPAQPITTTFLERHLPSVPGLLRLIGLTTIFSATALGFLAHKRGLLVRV

In publication PMC7512223 (Molecular Diversity, 2020):

Molecular target: MAO-B (Homo sapiens, UniProt P27338)
Assay: Inhibition of recombinant human MAO-B, kynuramine fluorometric assay
Format: biochemical
Details: MAO-B over MAO-A

- Selectivity index (SI) = IC50(MAO-A)/IC50(MAO-B): 105
SMILES: O=C1CCCc2cc(OCc3ccc(Cl)cc3)ccc21 [1g, 6-(4-Chlorobenzyloxy)-1-tetralone]
